In ChEMBL document CHEMBL6096727, “Structure-Based Rational Design and Evaluation of BET-Aurora Kinase Dual-Inhibitors for Treatment of Cancers” (J Med Chem, 2025):

Target: T1, Aurora kinase A (Homo sapiens) (UniProt O14965)
T1 sequence (whole entry): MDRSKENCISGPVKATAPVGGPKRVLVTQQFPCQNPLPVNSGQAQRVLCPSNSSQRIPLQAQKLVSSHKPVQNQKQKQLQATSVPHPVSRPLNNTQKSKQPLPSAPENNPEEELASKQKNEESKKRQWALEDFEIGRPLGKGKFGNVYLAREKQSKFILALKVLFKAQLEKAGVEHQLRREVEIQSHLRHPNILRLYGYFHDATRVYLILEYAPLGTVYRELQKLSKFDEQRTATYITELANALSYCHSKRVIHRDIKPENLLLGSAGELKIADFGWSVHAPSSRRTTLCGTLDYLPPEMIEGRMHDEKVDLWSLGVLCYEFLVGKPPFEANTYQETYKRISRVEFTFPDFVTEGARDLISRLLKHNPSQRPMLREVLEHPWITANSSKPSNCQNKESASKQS
Test: Inhibition of AURKA (unknown origin) at 1 uM relative to control

inhibition: 67.4%
SMILES: CC(C)N1c2cc(Nc3nccc(-c4ccccc4)n3)ccc2N(C)C(=O)C1C (stereo unspecified)
